Data: patent US12558356B2, “Immunophilin binding agents and uses thereof” (The Regents of the University of California, priority 2019, dated 2026)

By UniProt entry, the sequences of proteins in these tests, tags left out.
UniProt P62942, whole entry: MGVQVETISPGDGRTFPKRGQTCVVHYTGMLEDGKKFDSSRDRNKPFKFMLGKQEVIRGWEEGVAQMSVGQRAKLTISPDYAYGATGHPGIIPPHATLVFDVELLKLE

How the values were obtained:
[1] = system: mTOR; test: Rescue of mTOR inhibition in cells
[2] = system: mTOR signaling in MCF7 cells; test: Rescue of mTOR inhibition in MCF7 cells, 4 h, Western blot
[3] = biological target: FKBP12 (Homo sapiens (Human), UniProt P62942); details: read-out: Kd (binding to FKBP12); fluorescence polarization assay

Kd [3]: 3.7 nM
SMILES: CO[C@H]1C[C@@H](C)C/C(C)=C\[C@@H](CCCc2cccc[n+]2[O-])C(=O)C[C@H](O)[C@@H](C)[C@@H](/C(C)=C/[C@@H]2CC[C@@H](O)[C@H](OC)C2)OC(=O)[C@@H]2CCCCN2C(=O)C(=O)[C@]2(O)O[C@H]1[C@@H](OC)C[C@H]2C
rescue of mTOR inhibition ([1]; inhibition by RapaLink-1, in cells): rescues mTOR inhibition | rescue of mTOR inhibition ([1]; inhibition by Rapamycin, in cells): rescues mTOR inhibition | Rescue of mTOR inhibition by Rapamycin or RapaLink-1 [2]: rescues mTOR inhibition
